## Binding of CDR-mutated scFvs to a peptide of the spike HR2 region

Target peptide (SARS-CoV-2 spike, HR2 region): PDVDLGDISGINAS

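The parent was found by panning a naive human phage display library on the peptide. Library AAYL52 holds single substitutions and randomly drawn double and triple substitutions in the CDRs. The assay is AlphaSeq: two haploid yeast populations carry antibody and antigen on their surface. The frequency of each diploid, read from paired DNA barcodes, reflects how well the two displayed proteins bind. A regression on co-assayed BCL2-family reference pairs converts the normalised counts of each replicate to an apparent Kd. Each pool was mated in three replicate cultures.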

Parent: Ab-95, a human scFv built as VH, the linker GGGGSGGGGSGGGGS, VL. Only the CDRs of the light chain vary.
VH: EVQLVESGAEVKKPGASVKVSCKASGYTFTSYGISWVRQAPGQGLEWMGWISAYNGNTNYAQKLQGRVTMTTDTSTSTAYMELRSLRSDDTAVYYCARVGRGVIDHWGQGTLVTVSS
VL: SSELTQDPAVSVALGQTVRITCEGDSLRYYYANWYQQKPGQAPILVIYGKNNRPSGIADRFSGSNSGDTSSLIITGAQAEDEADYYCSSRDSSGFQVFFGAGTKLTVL

Positions count from residue 1 of the parent VL; G49D puts D in place of G.
Kd is apparent (estimated from mating counts) and averaged on the log scale over replicates with a signal. Smaller is tighter.
An entry "nd" has no value in the source: the pair was not observed among the diploids in any replicate. This suggests poor binding but is not conclusive.
In this assay the parent's reference entry averaged 200 nM; its copy inside this library read 180 nM.

changes | Kd | detected | empty controls
G49D+P54G+G94K | 2.0 µM | 1/3 | 3/9
G24H+Y30H+F98D | 19 µM | 1/3 | 0/9
Y31D+F98S | 21 nM | 3/3 | 2/9
N33P+S89G+V97N | nd | 0/3 | 4/9
G94C+V97S+F98L | 1.9 µM | 1/3 | 4/9
D25Y+V97H | 370 nM | 2/3 | 0/9
K50N+G94V | 220 nM | 3/3 | 4/9
L27I+P54L+D91M | 27 µM | 2/3 | 1/9
D25F+S26R+F95V | 2.5 µM | 1/3 | 4/9
S55I+R90L+S93G | nd | 0/3 | 1/9
L27A+N33Q+D91S | 8.1 µM | 3/3 | 4/9
N33V+S93T | 830 nM | 3/3 | 5/9
N33Y+K50S+S88A | nd | 0/3 | 5/9
K50R+S55E+D91F | 350 nM | 3/3 | 4/9
A32M+G49D+D91E | 29 µM | 3/3 | 3/9
N51F+N52V+G94Q | 16 µM | 1/3 | 1/9
G49R+N51T+V97A | 6.4 µM | 1/3 | 3/9
N51L+N52E+S55R | 200 nM | 3/3 | 4/9
R53D+D91I+S93Q | 18 µM | 2/3 | 5/9
S88Y+S92I+G94I | 240 nM | 3/3 | 2/9
G94M+Q96M+F98A | 150 nM | 3/3 | 1/9
A32Y+S88A | 960 nM | 3/3 | 0/9
D25S+D91H+G94H | 4.4 µM | 3/3 | 1/9
Y29V+D91I+V97M | 880 nM | 2/3 | 1/9
Y31P+N52G+S88P | 36 nM | 3/3 | 2/9
R28Q+N51Y+F98R | 880 nM | 3/3 | 4/9
G24D+R53F+S93D | 48 µM | 1/3 | 3/9
G24C+S26G+Y30Q | 120 nM | 3/3 | 2/9
R28Q+N33F+S93V | 19 µM | 2/3 | 4/9
P54D+D91W+Q96Y | 3.0 µM | 3/3 | 4/9
N33W+R53P+F95M | 5.8 µM | 2/3 | 3/9
G49K+S88H+F95P | 48 µM | 1/3 | 2/9
R28V+Y31N+F95K | 110 nM | 3/3 | 3/9
K50P+N51P+Q96D | 8.8 µM | 1/3 | 1/9
D25V+S89I+S93K | nd | 0/3 | 1/9
D25L+S26R | 2.3 µM | 2/3 | 1/9
A32T+P54D+D91Y | 2.6 µM | 3/3 | 1/9
Y30T+N52Y+R90A | nd | 0/3 | 1/9
S88T+R90F+S93I | 13 µM | 1/3 | 1/9
Y29K+S89V+G94V | 3.5 µM | 3/3 | 3/9
S26K+V97G | 1.1 mM | 1/3 | 2/9
S26P+S93F+F95A | 1.4 µM | 3/3 | 2/9
G24H+R28C+Y29V | 22 µM | 1/3 | 1/9
R28L+Y30E+F95V | 95 nM | 3/3 | 3/9
S89T+D91I+F95H | 3.4 µM | 3/3 | 5/9
R28C+N51T+F98V | 1.2 µM | 1/3 | 3/9
E23G+S89P+S93H | 2.6 µM | 1/3 | 3/9
D25M+Y30I+Q96W | 17 µM | 2/3 | 2/9
R28S+N33M+R53W | 1.6 µM | 1/3 | 2/9
N52R+F95N+V97Q | 15 µM | 2/3 | 4/9
Y29D+A32N | 460 µM | 1/3 | 2/9
K50L+D91G+F98R | nd | 0/3 | 1/9
R53Q+P54H+G94E | 5.1 µM | 3/3 | 4/9
S26I+L27T+S92L | 2.8 µM | 2/3 | 3/9
N33H+V97H | 230 nM | 3/3 | 4/9
S92N+G94A+Q96D | 500 nM | 3/3 | 3/9
D25Q+Y29C+V97K | 1.1 µM | 3/3 | 1/9

The first 5 entries again:

| changes | Kd | detected | empty controls |
|---|---|---|---|
| G49D+P54G+G94K | 2.0 µM | 1/3 | 3/9 |
| G24H+Y30H+F98D | 19 µM | 1/3 | 0/9 |
| Y31D+F98S | 21 nM | 3/3 | 2/9 |
| N33P+S89G+V97N | nd | 0/3 | 4/9 |
| G94C+V97S+F98L | 1.9 µM | 1/3 | 4/9 |

Nonspecific signal, from three strains lacking the peptide, appeared in 28% of pairings of library AAYL52, centred on 8.2 µM (5% of these signals below 800 nM); values are not corrected for it. The control count says in how many pairings with the empty strains this scFv gave a signal.

The measurements come from Engelhart et al. 2022 (doi:10.1038/s41597-022-01779-4) through the FLAb antibody collection.